Values of other authors as cited in patent publication US8449914B2, “Controlled release carvedilol compositions” (Egalet Ltd., priority 2002, dated 2013).

Details: in vivo

Row | t½ [h] | SMILES
1 | 9.6 | COc1ccccc1OCCNC[C@@H](O)COc1cccc2[nH]c3ccccc3c12 [R(+)-carvedilol]
2 | 22.1 | COc1ccccc1OCCNC[C@H](O)COc1cccc2[nH]c3ccccc3c12 [S(−)-carvedilol]
